Assay [1] has as its target Phosphatidylinositol 4-phosphate 3-kinase C2 domain-containing subunit beta (Homo sapiens) (UniProt O00750). In words: Inhibition of human PI3KC2B at 1 uM relative to control.
The next assay relates to Hs-578T. In words: Anticancer activity against human Hs-578T cells assessed as inhibition of cell growth. In kind it is functional, cell-based.
The next assay deals with SNB-75. In words: Anticancer activity against human SNB-75 cells assessed as inhibition of cell growth. In kind it is functional, cell-based.
In assay [2] the target is Receptor-type tyrosine-protein kinase FLT3 (Homo sapiens) (UniProt P36888). In words: Inhibition of human FLT3 at 1 uM relative to control.
A further assay has as its system MDA-MB-468. In words: Anticancer activity against human MDA-MB-468 cells assessed as inhibition of cell growth. In kind it is functional, cell-based.
The test system of assay [3] is Epidermal growth factor receptor (Homo sapiens), P00533 [L858R].
The subject of the next assay is NCI-H226. In words: Anticancer activity against human NCI-H226 cells expressing KRAS mutant assessed as inhibition of cell growth. In kind it is functional, cell-based.
Assay [4] deals with T1, Bone morphogenetic protein receptor type-2 (Homo sapiens) (UniProt Q13873).
T1 sequence (whole entry): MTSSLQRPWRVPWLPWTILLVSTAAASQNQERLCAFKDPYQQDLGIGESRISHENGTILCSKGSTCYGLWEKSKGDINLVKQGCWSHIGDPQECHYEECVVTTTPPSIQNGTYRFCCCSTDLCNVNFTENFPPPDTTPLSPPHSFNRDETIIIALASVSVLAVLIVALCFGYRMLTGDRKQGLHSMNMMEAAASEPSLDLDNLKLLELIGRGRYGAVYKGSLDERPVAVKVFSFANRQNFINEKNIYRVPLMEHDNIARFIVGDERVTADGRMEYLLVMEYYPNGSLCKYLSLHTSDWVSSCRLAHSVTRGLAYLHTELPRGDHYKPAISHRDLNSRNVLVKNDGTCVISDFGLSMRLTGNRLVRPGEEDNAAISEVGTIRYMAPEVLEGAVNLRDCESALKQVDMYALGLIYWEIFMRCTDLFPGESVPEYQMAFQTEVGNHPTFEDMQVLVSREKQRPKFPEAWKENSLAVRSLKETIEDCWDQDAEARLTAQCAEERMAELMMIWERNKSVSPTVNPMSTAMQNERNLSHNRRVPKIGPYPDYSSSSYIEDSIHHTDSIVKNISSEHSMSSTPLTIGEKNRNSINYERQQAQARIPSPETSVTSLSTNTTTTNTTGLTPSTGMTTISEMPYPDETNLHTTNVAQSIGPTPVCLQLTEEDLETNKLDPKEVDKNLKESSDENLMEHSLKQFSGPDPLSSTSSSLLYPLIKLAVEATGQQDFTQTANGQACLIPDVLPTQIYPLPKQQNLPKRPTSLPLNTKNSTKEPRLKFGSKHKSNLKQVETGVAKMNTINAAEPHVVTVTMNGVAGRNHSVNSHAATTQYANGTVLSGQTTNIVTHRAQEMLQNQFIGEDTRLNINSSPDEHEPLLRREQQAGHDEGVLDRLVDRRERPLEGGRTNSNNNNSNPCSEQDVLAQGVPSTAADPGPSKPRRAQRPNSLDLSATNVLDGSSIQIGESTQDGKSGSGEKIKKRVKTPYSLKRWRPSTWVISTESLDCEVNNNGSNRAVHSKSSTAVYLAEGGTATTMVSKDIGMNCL
In words: Inhibition of human BMPR2 at 1 uM relative to control.

Amino acid sequences for entries named in this document (tags omitted). A change or cut given only in a name is not applied to a line headed by its entry.
UniProt O00750: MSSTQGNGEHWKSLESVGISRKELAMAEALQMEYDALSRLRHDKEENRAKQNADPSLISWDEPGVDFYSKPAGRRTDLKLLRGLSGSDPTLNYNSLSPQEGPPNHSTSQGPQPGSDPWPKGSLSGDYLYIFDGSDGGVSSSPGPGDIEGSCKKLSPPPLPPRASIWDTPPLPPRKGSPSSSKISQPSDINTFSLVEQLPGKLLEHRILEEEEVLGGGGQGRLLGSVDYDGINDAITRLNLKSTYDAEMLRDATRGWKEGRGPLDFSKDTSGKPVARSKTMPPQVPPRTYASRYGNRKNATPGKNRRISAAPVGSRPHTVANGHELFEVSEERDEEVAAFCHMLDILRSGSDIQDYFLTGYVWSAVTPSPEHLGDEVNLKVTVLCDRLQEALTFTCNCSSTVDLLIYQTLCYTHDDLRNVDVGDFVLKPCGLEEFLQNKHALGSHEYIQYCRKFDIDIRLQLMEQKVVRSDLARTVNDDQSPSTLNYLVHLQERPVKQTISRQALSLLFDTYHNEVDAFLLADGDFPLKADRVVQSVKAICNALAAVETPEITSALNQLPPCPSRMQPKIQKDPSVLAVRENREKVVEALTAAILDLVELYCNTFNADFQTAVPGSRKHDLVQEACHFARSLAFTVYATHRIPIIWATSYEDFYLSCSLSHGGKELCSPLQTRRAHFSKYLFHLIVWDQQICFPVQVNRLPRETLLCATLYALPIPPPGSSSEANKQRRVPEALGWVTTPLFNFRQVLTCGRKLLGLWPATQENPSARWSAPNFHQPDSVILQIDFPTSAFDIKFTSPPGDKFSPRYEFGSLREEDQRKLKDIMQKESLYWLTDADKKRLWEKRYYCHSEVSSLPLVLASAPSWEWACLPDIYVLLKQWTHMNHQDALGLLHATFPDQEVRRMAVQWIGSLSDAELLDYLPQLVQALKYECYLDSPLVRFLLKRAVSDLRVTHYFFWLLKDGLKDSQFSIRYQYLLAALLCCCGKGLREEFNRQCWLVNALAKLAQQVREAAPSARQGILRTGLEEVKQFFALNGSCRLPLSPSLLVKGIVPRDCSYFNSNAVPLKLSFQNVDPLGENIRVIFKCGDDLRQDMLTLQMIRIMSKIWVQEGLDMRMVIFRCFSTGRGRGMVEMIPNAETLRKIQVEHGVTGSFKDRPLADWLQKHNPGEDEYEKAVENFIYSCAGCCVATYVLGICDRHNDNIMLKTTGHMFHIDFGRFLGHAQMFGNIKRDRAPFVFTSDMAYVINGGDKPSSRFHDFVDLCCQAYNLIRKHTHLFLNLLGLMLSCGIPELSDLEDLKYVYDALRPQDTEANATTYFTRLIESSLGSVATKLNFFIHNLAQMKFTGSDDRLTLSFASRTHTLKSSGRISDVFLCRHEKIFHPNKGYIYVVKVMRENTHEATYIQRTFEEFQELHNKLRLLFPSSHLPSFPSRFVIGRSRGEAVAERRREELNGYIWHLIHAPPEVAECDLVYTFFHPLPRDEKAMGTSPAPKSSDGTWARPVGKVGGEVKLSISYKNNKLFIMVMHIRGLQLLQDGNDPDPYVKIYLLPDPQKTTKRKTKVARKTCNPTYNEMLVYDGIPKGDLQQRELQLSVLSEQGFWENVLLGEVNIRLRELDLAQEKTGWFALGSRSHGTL
UniProt P36888, whole entry: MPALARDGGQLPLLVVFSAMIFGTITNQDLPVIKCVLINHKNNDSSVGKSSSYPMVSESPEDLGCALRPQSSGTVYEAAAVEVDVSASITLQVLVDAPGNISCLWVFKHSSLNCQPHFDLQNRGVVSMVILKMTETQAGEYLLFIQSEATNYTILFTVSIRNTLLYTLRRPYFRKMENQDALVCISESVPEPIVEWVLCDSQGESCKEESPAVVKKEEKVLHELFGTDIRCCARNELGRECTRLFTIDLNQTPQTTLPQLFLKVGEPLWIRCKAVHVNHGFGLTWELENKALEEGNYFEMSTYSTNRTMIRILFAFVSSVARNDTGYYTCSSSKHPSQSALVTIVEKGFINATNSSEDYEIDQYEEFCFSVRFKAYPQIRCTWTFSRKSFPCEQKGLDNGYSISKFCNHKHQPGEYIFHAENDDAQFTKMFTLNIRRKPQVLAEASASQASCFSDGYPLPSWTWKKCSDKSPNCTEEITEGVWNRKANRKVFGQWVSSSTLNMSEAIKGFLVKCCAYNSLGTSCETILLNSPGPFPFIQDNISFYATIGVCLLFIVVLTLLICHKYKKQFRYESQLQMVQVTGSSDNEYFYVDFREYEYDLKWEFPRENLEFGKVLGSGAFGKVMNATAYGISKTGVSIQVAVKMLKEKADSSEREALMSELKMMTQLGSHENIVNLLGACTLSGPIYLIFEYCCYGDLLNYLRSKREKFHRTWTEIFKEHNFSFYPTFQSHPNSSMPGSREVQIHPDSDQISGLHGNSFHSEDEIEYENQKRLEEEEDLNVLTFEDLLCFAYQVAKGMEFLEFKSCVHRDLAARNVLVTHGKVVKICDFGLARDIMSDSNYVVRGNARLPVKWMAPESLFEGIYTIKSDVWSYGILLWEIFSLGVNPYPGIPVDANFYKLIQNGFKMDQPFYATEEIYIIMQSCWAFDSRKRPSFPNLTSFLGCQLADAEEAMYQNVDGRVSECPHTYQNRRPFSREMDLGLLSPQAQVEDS

As a reminder, the inhibition is the change of the read-out against control, counted positive when it falls. High values mean a response far below the control, low ones a response near the control.

Active and inactive are the calls of the source. The rule behind the calls is not given here.

In assay [1], `O=C(Nc1ccccc1)c1ccc(Nc2ncnc3[nH]ccc23)cc1` had an inhibition of 74%.
Regarding `Cn1nccc1-c1cc2c(Nc3ccc(OCc4ccccc4)cc3)ncnc2[nH]1`, the outcome with Hs-578T, in the assay with SNB-75, with MDA-MB-468 and in the assay with NCI-H226 was Active. Further, the inhibition in assay [2] turned out to be 75%. Moreover, the Ratio in assay [3] amounted to 4.
`O=S(=O)(Nc1ccc(Nc2ncnc3[nH]ccc23)cc1)c1ccccc1`: the inhibition in assay [4] came out at 97%.

For the origin of these results see ChEMBL document CHEMBL5625257, “Design, synthesis, and evaluation of dual EGFR/AURKB inhibitors as anticancer agents for non-small cell lung cancer” (Bioorg Med Chem Lett, 2024).
